Measured values as given in patent publication US20210122788A1.

Amino acid sequences for entries named in this document (tags omitted). Residues count along the entry.
UniProt O95971, 25-159: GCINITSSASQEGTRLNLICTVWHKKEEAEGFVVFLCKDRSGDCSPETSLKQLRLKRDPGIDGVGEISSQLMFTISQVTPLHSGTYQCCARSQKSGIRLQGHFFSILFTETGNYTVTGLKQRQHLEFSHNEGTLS

Columns and labels:
[1] = target: human BTLA, wild-type, on cells (human) (UniProt Q7Z6A9); test: FACS binding to EL4 cells; settings: Fc fusion
[2] = target: human CD160 on cells (human) (UniProt O95971); test: FACS binding to EL4 cells; settings: Fc fusion

human CMV UL144 Fc (Fiala strain)
EC50 [1]: 0.66 µg/mL
EC50 [2]: > 200 µg/mL
